Measured values as given in US7544689B2, “Purine derivatives” (Cyclacel Limited, priority 2002, dated 2009).
pIC50: −log10 of the molar value.

Protein sequences, listed by entry. Tags and fused reporters are not part of them.
UniProt P28482, whole entry: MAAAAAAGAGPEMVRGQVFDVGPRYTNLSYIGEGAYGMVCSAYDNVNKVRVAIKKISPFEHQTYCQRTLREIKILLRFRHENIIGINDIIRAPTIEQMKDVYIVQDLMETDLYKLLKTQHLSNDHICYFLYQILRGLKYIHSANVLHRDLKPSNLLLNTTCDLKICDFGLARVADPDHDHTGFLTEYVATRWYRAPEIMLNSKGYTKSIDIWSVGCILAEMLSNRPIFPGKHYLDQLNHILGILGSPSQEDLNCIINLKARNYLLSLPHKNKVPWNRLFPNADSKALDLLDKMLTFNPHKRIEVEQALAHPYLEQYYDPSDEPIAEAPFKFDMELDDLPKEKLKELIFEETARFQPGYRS

Assays:
[1] = molecular target: cyclic AMP-dependent kinase (PKA) catalytic subunit (Homo sapiens, UniProt P17612); test: Kinase assay, PKA inhibition; assay type: biochemical; conditions: read-out: Kinase inhibition PKA IC50
ERK2 = ERK2 (Homo sapiens, UniProt P28482); test: Kinase assay, ERK-2 inhibition; assay type: biochemical; conditions: read-out: Kinase inhibition ERK2 IC50
[2] = system: Human tumour cell lines: A549, HT29, Saos-2; test: 72-h MTT cytotoxicity assay; assay type: cell-based; conditions: read-out: In vitro anti-proliferative activity (72 h MTT IC50)

CC[C@H](Nc1nc(NCc2ccccn2)c2ncn(C(C)C)c2n1)C(C)(C)O
pIC50 [1]: < 3.70 | pIC50 (ERK2): 4.23 | pIC50 [2]: 4.62
